Values quoted from earlier work as cited in article PMC6470842 (Pharmaceutics, 2019).

Conditions: cited from earlier work

CN(CCOc1ccc(NS(C)(=O)=O)cc1)CCc1ccc(NS(C)(=O)=O)cc1 [dofetilide]
AUC increase when co-administered with cimetidine: up to 1.5 fold
